Assay results reported in patent US20040117125A1, “Drug discovery method and apparatus” (priority 1999, published 2004).

Chains of the proteins cited; added tags and fusions are not shown. Lines headed by an entry give the natural chain unless they say otherwise; changes in a name come on top.
UniProt P35372, whole entry, looked up: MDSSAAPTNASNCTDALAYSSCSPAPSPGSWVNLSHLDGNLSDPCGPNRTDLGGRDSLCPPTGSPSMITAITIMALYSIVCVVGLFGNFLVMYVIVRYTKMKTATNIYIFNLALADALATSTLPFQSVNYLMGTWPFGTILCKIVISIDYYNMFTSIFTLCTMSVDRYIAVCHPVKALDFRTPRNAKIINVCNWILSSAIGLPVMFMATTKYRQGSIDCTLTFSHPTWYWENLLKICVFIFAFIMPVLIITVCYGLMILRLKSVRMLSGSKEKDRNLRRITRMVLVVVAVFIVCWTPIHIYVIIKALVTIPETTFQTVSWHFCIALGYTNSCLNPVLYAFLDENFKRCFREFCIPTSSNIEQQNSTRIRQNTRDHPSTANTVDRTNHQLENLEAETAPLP
UniProt P41143, whole entry, looked up: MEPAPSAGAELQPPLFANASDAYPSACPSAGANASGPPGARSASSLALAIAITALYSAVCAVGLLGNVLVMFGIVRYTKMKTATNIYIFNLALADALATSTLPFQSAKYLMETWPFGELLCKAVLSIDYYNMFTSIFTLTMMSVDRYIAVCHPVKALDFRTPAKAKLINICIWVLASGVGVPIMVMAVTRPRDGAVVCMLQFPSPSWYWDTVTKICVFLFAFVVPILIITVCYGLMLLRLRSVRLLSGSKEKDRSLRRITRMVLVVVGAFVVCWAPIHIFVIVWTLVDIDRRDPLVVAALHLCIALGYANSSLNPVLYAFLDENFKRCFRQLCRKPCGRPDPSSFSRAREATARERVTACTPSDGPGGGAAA
UniProt P41145: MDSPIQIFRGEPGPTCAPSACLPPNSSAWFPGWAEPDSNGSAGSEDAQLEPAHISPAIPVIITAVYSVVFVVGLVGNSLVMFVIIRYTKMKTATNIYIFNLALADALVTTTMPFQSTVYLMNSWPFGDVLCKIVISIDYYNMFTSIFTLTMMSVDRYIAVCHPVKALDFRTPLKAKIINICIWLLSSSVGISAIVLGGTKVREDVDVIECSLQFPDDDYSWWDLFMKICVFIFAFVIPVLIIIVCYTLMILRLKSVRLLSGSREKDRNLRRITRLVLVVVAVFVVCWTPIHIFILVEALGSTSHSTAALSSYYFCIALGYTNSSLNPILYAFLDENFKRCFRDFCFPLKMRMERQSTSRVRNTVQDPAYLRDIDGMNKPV

Key:
Settings in all cases: initial inhibition
Opiate, Mu = Opiate, Mu (Homo sapiens, UniProt P35372); assay: Fluridone panel: Opiate, Mu
Opiate, Delta = Opiate, Delta (Homo sapiens, UniProt P41143); assay: Fluridone panel: Opiate, Delta
Opiate, Kappa = Opiate, Kappa (Homo sapiens, UniProt P41145); assay: Fluridone panel: Opiate, Kappa
[1] = test system: Nicotinic, (a-bungaro-toxin insensitive); assay: Fluridone panel: Nicotinic, (a-bungaro-toxin insensitive)

For Cn1cc(-c2ccccc2)c(=O)c(-c2cccc(C(F)(F)F)c2)c1, the “Inhibition 10 uM” value (Opiate, Mu) was 7.75%, the “Inhibition 10 uM” value (Opiate, Delta) was 21.50% and the “Inhibition 10 uM” value (Opiate, Kappa) was −13.89%. The “Inhibition 10 uM” value [1] was −6.04%.
